The source of these data is PubChem BioAssay.

Amino acid sequences for entries named in this document (tags omitted).
UniProt Q61143, whole entry: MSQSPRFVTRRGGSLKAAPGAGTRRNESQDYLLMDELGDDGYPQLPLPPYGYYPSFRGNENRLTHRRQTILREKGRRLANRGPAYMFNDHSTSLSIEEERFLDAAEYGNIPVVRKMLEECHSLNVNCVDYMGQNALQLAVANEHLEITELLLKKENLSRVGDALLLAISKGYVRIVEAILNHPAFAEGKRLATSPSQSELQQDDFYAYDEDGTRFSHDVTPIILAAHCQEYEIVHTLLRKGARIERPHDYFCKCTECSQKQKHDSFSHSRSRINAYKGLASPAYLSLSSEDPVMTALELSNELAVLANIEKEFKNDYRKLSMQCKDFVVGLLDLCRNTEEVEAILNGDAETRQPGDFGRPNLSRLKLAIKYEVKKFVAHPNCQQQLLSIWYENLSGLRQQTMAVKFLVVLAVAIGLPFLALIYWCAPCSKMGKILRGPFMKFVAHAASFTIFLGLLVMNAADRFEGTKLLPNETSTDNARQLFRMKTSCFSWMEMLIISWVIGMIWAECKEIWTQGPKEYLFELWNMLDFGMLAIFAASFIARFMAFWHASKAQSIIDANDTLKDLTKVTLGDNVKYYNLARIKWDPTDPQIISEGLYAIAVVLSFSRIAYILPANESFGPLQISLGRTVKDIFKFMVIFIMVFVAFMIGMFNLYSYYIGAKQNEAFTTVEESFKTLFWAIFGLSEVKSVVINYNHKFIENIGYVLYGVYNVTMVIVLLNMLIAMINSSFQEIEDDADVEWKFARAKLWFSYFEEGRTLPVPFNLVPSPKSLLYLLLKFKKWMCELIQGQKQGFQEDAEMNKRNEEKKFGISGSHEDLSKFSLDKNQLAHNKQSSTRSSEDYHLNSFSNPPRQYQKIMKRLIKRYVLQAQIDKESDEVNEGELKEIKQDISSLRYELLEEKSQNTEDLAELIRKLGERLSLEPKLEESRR

This is a selection; strong and weak results do not stand in their true shares. Some of these compounds have results that are not shown, active ones among them. Activity calls are given as the source filed them.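 The calls were made as follows, unless noted: active = membrane potential signal drops by more than 5 SD from the mean control signal, in both duplicate plates; inactive = the rest.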

Experiment [1] has as its target Short transient receptor potential channel 6 (Mus musculus) (UniProt Q61143). The experiment is described as follows: TRPC6 blockade by TRPC4 inhibitor hits – cell-based, HEK293, membrane potential dye, duplicate, selectivity assay for TRPC4 inhibitor project, confirmation (AID 434948;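 active = active in primary screen and both duplicates, each dropping signal beyond three positive-control SD with fluorescence still positive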). Particulars: HEK293 TRPC6, membrane potential dye fluorescence; at 10 µM; stimulated with maximal-effect acetylcholine. The method in brief:
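System: TRPC6-expressing HEK293 cells; Also added: acetylcholine at maximal (ECmax) concentration, added after compound; Incubation: 45 min RT dye load, 110 s compound, 110 s agonist read; Read-out basis: integrated fluorescence change ratio over baseline, normalized to positive controls; Repeats: two replicates; Signal: kinetic fluorescence of membrane potential dye with 5 s baseline.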

For experiment [2] the target is unchanged. The experiment is described as follows: positive modulators of mouse TRPC6 channel – HEK293 cells, membrane potential dye, duplicate, selectivity assay for TRPC4 potentiator project, confirmation (AID 434952;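 active = compound raising the membrane signal above positive-control mean plus 3 SD in both repeats, and a primary screen hit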). The following applies: HEK293 TRPC6, membrane potential dye fluorescence; at 10 µM; maximal acetylcholine added after compound.
Experiment [3] can be described thus: nonspecific calcium rise without TRPC4 – cell-based, HEK293 mu-opioid receptor line, counter-screen for TRPC4 activator project, confirmation (AID 449723;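 active = hit in primary screen, with calcium signal over 5 SD above buffer well mean in both duplicates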;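 also: counter screen cells carry the mu-opioid receptor alone and lack TRPC4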). The following applies: HEK293 mu-opioid cells, Fluo-4 calcium fluorescence; at 10 µM. A general note: The purpose of a counterscreen is to sort out artefacts and off-target activity.
Experiment [4] in a line: nonspecific potentiation of DAMGO calcium response – cell-based, HEK293 mu-opioid receptor line, counter-screen for TRPC4 allosteric potentiator project, confirmation (AID 449724;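 active = calcium signal rise more than 3 SD above the low-dose agonist control mean, in both duplicate plates and the primary screen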;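 also: HEK293 cells carrying mu-opioid receptor only with no TRPC4 channel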). Particulars: HEK293 mu-opioid receptor cells, Fluo-4 calcium flux; at 10 µM; compound added before EC20 DAMGO stimulus.
Experiment [5] is described as follows: membrane potential response modulators in host HEK293 cells – cell-based, second counter-screen, parental HEK293, membrane potential dye, counter-screen for TRPC6 modulator project, confirmation (AID 488926).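 Also: plate controls were acetylcholine ECmax control wells for no effect and buffer only wells for full effect.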 The following applies: parental HEK293, membrane potential dye fluorescence; at 10 µM; active compounds read high; after compound, maximal acetylcholine stimulation.

As for `CN(C)c1ccc(C(=O)NCC2(N(C)C)CCCCC2)cc1`, the result in experiment [1], in experiment [2], in experiment [3] and in experiment [4] was inactive.
A word on the inhibition: it is the change of the read-out against control, counted positive when it falls. Turning to `CN1[C@@H]2CC[C@H]1CC(OC(=O)C(O)(c1ccccc1)c1ccccc1)C2` (stereo partly specified), the inhibition in experiment [5] is active: 104%.
In the case of `CCN(CC)CC(C)C(C)OC(=O)C(O)(c1ccccc1)c1ccccc1` (stereo unspecified), in experiment [5], the inhibition was active: 112%.
